The target of assay [1] is T1, Tyrosyl-DNA phosphodiesterase 1 (Homo sapiens, UniProt Q9NUW8). Description: Inhibition of human recombinant Tdp1 using 5'-[32P]-labeled single-stranded DNA oligonucleotide containing 3'-phosphotyrosine as substrate assessed as prevention of generation of oligonucleotide with free 3'-phosphate after 15 mins by PAGE analysis.
The target in assay [2] is T1, Tyrosyl-DNA phosphodiesterase 1. As to the kind of experiment: Competitive inhibition of human recombinant Tdp1 after 1 hr by FRET assay.

Amino acid sequences for entries named in this document (tags omitted).
UniProt Q9NUW8, whole entry: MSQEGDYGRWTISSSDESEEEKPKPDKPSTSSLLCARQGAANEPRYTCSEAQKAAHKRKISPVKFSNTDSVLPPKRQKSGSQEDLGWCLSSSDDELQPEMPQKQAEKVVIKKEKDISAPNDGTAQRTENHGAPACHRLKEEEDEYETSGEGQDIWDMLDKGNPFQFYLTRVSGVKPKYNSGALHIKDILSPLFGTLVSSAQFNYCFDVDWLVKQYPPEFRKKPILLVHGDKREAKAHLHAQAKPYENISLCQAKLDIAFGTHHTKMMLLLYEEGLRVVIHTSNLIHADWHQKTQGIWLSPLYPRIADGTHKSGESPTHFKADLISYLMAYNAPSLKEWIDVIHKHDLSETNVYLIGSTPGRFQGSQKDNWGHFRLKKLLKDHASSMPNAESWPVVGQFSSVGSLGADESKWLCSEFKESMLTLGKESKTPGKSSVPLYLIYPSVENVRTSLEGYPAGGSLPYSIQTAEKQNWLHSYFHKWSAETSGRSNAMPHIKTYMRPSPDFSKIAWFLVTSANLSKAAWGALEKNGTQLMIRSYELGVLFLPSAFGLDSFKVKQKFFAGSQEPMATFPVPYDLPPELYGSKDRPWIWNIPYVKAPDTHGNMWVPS

This is an account of results in ChEMBL document CHEMBL2057156, “Synthesis and biological evaluation of the first dual tyrosyl-DNA phosphodiesterase I (Tdp1)-topoisomerase I (Top1) inhibitors” (J Med Chem, 2012).

With `NCCCCCCCCCCn1c2c(c3ccccc3c1=O)C(=O)c1ccccc1-2`, the inhibition result in assay [1] was “Dose-dependent effect”.

By IC50 is commonly meant the concentration at which inhibition is half-maximal. Regarding `O=C1c2ccccc2-c2c1c1ccccc1c(=O)n2CCCCCCO`, the IC50 in assay [1] is > 111 µM.

In general, Ki refers to a measure of affinity in units of concentration, obtained from inhibition or displacement. Consider `NCCCn1c2c(c3ccccc3c1=O)C(=O)c1ccccc1-2`, for which, in assay [2], the Ki was determined as 3.19 µM.

For `NCCCCCCCCCCCn1c2c(c3ccccc3c1=O)C(=O)c1ccccc1-2`, the inhibition result in assay [1] is “Dose-dependent effect”.

For `NCCCCCCCCCCCCn1c2c(c3ccccc3c1=O)C(=O)c1ccccc1-2`, in assay [1], the inhibition result is “Dose-dependent effect”.

For the compound `O=C1c2ccccc2-c2c1c1ccccc1c(=O)n2CCCCCCCO`, the IC50 in assay [1] was > 111 µM.
